Binding of CDR-mutated scFvs to a peptide of the spike HR2 region

Data: MIT Lincoln Laboratory AlphaSeq set, Li et al. 2023, doi:10.1038/s41467-023-39022-2, as distributed in FLAb.

Antigen: PDVDLGDISGINAS, a 14-residue peptide of the SARS-CoV-2 spike HR2 region.

The variants keep the light chain, the linker and the frameworks of Ab-14 (scFv order VH, three GGGGS repeats, VL).
VH: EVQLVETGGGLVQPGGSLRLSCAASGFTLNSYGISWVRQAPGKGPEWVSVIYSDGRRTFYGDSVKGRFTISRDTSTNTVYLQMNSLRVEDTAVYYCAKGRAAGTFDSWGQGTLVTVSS
VL: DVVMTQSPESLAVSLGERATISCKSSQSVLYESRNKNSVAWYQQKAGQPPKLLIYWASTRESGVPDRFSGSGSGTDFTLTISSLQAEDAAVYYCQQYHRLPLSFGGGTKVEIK

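The starting antibody came from a phage panning campaign against this peptide. The variants were designed computationally from a first round of random CDR variants and then made and measured. Their group label is 14H_En_Gibbs (En: ensemble of fine-tuned language models; Gibbs: Gibbs sampling). In AlphaSeq, yeast of one mating type display the scFv and yeast of the other type display the target. Mating (16 h, 30 °C) was followed by selection of diploids and sequencing of their barcodes. A regression on co-assayed BCL2-family reference pairs converts the normalised counts of each replicate to an apparent Kd. Mating was done six times.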

The parent's heavy chain CDRs are GFTLNSYGIS, VIYSDGRRTFYGDSVK, GRAAGTFDS; each variant's own CDRs replace them letter for letter. Values are log10 of the apparent Kd in nM; lower means stronger binding. "n.d." marks a missing value. The strain was present, yet no cells mated with the target were sequenced in that replicate, which points to weak or no binding. As a blank, each scFv also met three strains without target: over all heavy chain designs, 1% of these pairings were detected, typically at 2.08 and seldom below 0.84. The control count says in how many pairings with the empty strains this scFv gave a signal, with their mean in brackets.

CDR-H1	CDR-H2	CDR-H3	log10 Kd (nM) by replicate	empty controls
GGNLDEYGIS	VIYADGKRRQYVDDVK	GSHADMFIM	n.d. n.d. n.d. n.d. n.d. n.d.	0 of 18
GFQLDEYGIS	VIYADGMRQSYCENVK	GVHGCTFGL	n.d. n.d. n.d. n.d. n.d. n.d.	0 of 18
GNNLDEYGIS	VIYADGQRSYYAQDVK	GKTGDNAFI	n.d. n.d. n.d. n.d. n.d. n.d.	0 of 18
GFDLNEYGIS	VIYADGQRRAYAANFK	GVNIGGFDA	n.d. n.d. n.d. n.d. n.d. n.d.	0 of 18
GYDIQDYGIS	VIYADGVRTAYHDSVK	GQLAGSFIT	0.45 0.91 1.06 2.21 0.08 0.87	0 of 18
GEDLNEYGVS	VIYADGIRSTYADKVK	GKHGAAFFV	n.d. n.d. n.d. n.d. n.d. n.d.	0 of 18
GFDLNEYGIS	VIYADGKRYHYTDSVK	GGVVGKVLY	n.d. n.d. n.d. n.d. n.d. n.d.	0 of 18
GRNLDEYGIS	VIYADGQRTSYIDNVK	DGDAVDFDM	n.d. n.d. n.d. n.d. n.d. n.d.	0 of 18
GFDLGEYGIS	VIYADGVRQSYVDKVK	GFNGVDLLV	n.d. n.d. n.d. n.d. n.d. n.d.	0 of 18
GFKLEAYGIS	VIYADGQRAAYVDKVK	GQHAGMFDQ	n.d. n.d. 1.82 n.d. n.d. n.d.	1 of 18 (2.90)
FKIGEDYGIS	VIYADGLRTAYENSVK	GDIAGTFDL	1.03 0.44 1.10 0.52 0.53 0.78	0 of 18
GFNIDEYGIS	VIYADGMRTAYSNAVK	GNVNGDTFS	n.d. n.d. n.d. n.d. n.d. n.d.	0 of 18
GESLEEYGIS	VIYADGMREQYVDSVK	GRQGGFFVV	n.d. n.d. n.d. n.d. n.d. n.d.	0 of 18
GESLEEYGIS	VIYADGIREQYVDDVK	GEQGGYFVV	n.d. n.d. n.d. n.d. n.d. n.d.	0 of 18
GFNVNEYGIS	VIYADGLRTQYIDSVK	GNAFIFGLD	n.d. n.d. n.d. n.d. n.d. n.d.	0 of 18
GFDLQEYGIS	VIYADGMRVSYTNTVK	GGNSMISAT	n.d. n.d. n.d. n.d. n.d. n.d.	0 of 18
DFNLNEYGIS	VIYADGQRASYDDKVK	GQISGTFDT	1.67 0.98 0.45 0.78 0.14 0.69	1 of 18 (2.15)
GQDINEYGIS	VIYADGLRQAYSENVK	GNINQFDDV	n.d. n.d. n.d. n.d. n.d. n.d.	0 of 18
GFDLNEYGVS	VIYADGQRTYYTESVK	GKFGDQLMA	n.d. n.d. n.d. n.d. n.d. n.d.	0 of 18
GFDIEDYGIS	VIYADGVRAMYKESVK	GGIAGTFLI	n.d. n.d. n.d. n.d. n.d. n.d.	0 of 18
GFDINEYGIS	VVYADGMRQAYIENFK	GTLSGTFDA	n.d. n.d. n.d. n.d. n.d. n.d.	0 of 18
GFNLDEYGVS	VIYADGQRTQYVQTVK	GKTGFVLFD	n.d. n.d. n.d. n.d. n.d. n.d.	0 of 18
GADLNEYGIS	VIYADGQRTVYADTVK	GHHGGIFDS	n.d. n.d. n.d. n.d. n.d. n.d.	0 of 18
GENLEEYGIS	VIYADGMRTQYAEKVK	GQQGGFFIK	n.d. n.d. n.d. n.d. n.d. n.d.	0 of 18
GFQLDEYGIS	VIYADGKRTAYAQNFK	GNGLVIQEG	n.d. n.d. n.d. n.d. n.d. n.d.	0 of 18
GFGLEEYGIS	VIYADGMRKSYAGKVK	GRLSGTVIM	n.d. n.d. n.d. n.d. n.d. n.d.	0 of 18
GKDLEEYGIS	VIYADGRRTSYIENVK	DGLNDGLFV	n.d. n.d. n.d. n.d. n.d. n.d.	0 of 18
GFDLGEYGVS	VIYADGTRAQYADKVK	GNISYNFTV	n.d. n.d. n.d. n.d. n.d. n.d.	1 of 18 (2.73)
GFHLDEYGIS	VIYADGMRSQVADNVK	GGIVAYFTQ	n.d. n.d. n.d. n.d. n.d. n.d.	1 of 18 (1.61)
GKSLDEYGIS	VIYADGLRKEYADSVK	GQFDDAMDL	n.d. n.d. n.d. n.d. n.d. n.d.	1 of 18 (2.79)
GFTIDEYGIS	VIYADGQRVAYNEKVK	GMLDGTFDQ	n.d. n.d. n.d. n.d. n.d. n.d.	0 of 18
GFDINEMGIS	VIYADGQRLFYAQEVK	GENTGSFDM	n.d. n.d. n.d. n.d. n.d. n.d.	1 of 18 (1.78)
GFDLKEYGIS	VIYADGRRTAYDNDVK	GQVAGIFLD	1.57 1.39 0.70 0.91 1.26 1.78	0 of 18
GESLDEYGIS	VIYADGQRVQYSNNVK	GLHFGVFDM	n.d. n.d. n.d. n.d. n.d. n.d.	0 of 18
GFDLNEYGIS	VIYADGMRTYYTESVK	GNFWDQLFV	n.d. n.d. 1.91 n.d. n.d. n.d.	0 of 18
GFDLEEYGIS	VIYADGFRTAYKNQVK	GSFMIDTVV	n.d. n.d. n.d. n.d. n.d. n.d.	0 of 18
GVELDEYGIS	VIYADGRRRFYADDVK	GNDIGGFDL	n.d. n.d. n.d. n.d. n.d. n.d.	0 of 18
GENLEEYGIS	VIYADGTRTQYAEKVK	GQQGGFFIK	n.d. n.d. n.d. n.d. n.d. n.d.	0 of 18
GFNLEEYGIS	VIYADGMRTAYTDKVK	GGLDVQEGY	n.d. n.d. n.d. n.d. n.d. n.d.	1 of 18 (0.99)
GEDLLEIGIS	VIYADGSRVAYTNAVK	GNEAGVFDL	n.d. n.d. n.d. n.d. n.d. n.d.	0 of 18
GQLLDDYGIS	VIYADGKRVAYVDDVK	GNVAGTFDM	0.30 -0.14 -0.44 -0.38 -0.20 -0.01	0 of 18

A selection of 6 entries from above:

CDR-H1	CDR-H2	CDR-H3	log10 Kd (nM) by replicate	empty controls
GFQLDEYGIS	VIYADGMRQSYCENVK	GVHGCTFGL	n.d. n.d. n.d. n.d. n.d. n.d.	0 of 18
GFNVNEYGIS	VIYADGLRTQYIDSVK	GNAFIFGLD	n.d. n.d. n.d. n.d. n.d. n.d.	0 of 18
GFDINEMGIS	VIYADGQRLFYAQEVK	GENTGSFDM	n.d. n.d. n.d. n.d. n.d. n.d.	1 of 18 (1.78)
GFDLKEYGIS	VIYADGRRTAYDNDVK	GQVAGIFLD	1.57 1.39 0.70 0.91 1.26 1.78	0 of 18
GKSLDEYGIS	VIYADGLRKEYADSVK	GQFDDAMDL	n.d. n.d. n.d. n.d. n.d. n.d.	1 of 18 (2.79)
GFDINEYGIS	VVYADGMRQAYIENFK	GTLSGTFDA	n.d. n.d. n.d. n.d. n.d. n.d.	0 of 18

The authors averaged sequences with at least three values out of six and counted those with two or fewer as poor binders. A sequence measured in both rounds can read differently, since the two assays cover different ranges.